Screening results: PubChem, National Center for Advancing Translational Sciences (NCATS)
An excerpt weighted towards active compounds, which were near 16% of everything screened.
DT40 TDP1 CPT = DT40-hTDP1 cell growth loss with CPT; Potency, µM (doses to about 46.2 µM), for inactives: at the top dose activity change, negative = growth inhibition, most hits filed as inhibitors; actives 12% (n = 420,000); chicken DT40 Tdp1-/-;hTDP1 cells + 20 nM CPT, ATP luminescence, 48 h; also: potency is read from the fitted curve at half-maximal effect; % is scaled to controls: 0 for no effect and ±100 for the full control effect; nearly all actives have a fitted effect of over 55% in size
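Chicken DT40 Tdp1-/- cells complemented with human TDP1, 400 cells/well, exposed to compounds plus 20 nM camptothecin for at least 48 h at 37 C; viability read as ATP content by CellTiter-Glo luminescence.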
TDP1 inh = blocks human tyrosyl-DNA phosphodiesterase 1. recombinant TDP1, AlphaScreen DNA substrate cleavage. Potency, µM (top dose mostly 130 µM), without a hit: top-dose activity change, negative = inhibition, actives largely listed as inhibitors. Q9NUW8. actives 0.28% (n = 350,000); also: potency is read from the fitted curve at half-maximal effect; % is scaled to controls: 0 for no effect and ±100 for the full control effect; nearly all actives have a fitted effect of over 40% in size
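AlphaScreen read-out: signal falls as enzyme removes the 3' tyrosine-FITC from a 5'-biotinylated DNA oligo (15 nM, 5 min, RT). Enzyme was E. coli-made recombinant Tdp1 at 1 nM, exposed to compound for 15 min beforehand; beads 10 ug/ml, 10 min.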
DT40 TDP1 no CPT = qHTS for Inhibitors of human tyrosyl-DNA phosphodiesterase 1 (TDP1): qHTS in cells in absence of CPT; DT40 Tdp1-/- hTDP1 cells, no CPT, ATP luminescence, 48 h; Potency, µM (highest dose often 46.2 µM), for inactives: top-dose activity change, negative = growth inhibition, hits mostly inhibitors; actives 15% (n = 420,000); AID 686978, 2013; also: potency is read from the fitted curve at half-maximal effect; % is scaled to controls: 0 for no effect and ±100 for the full control effect; nearly all actives have a fitted effect of over 55% in size
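No-CPT arm: Tdp1-/-;hTDP1 DT40 cells (400/well) plus compounds, incubated ≥48 hr at 37 °C. Readout CellTiter-Glo luminescence.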
uPA surface inh = cell surface uPA generation inhibition. cell surface uPA generation assay, qHTS. actives 0.31% (n = 330,000). AID 540303. Potency, µM (series often up to 38.3 µM), for inactives: at the highest dose activity change, negative = inhibition, actives largely listed as inhibitors; active = well fitted inhibition curve with a large enough effect; inconclusive = small, poorly fitted or top-dose-only effect; inactive = no such curve, though single readings can be large or run the other way; tested in mouse RAW 264.7 cells; also: potency is read from the fitted curve at half-maximal effect; % is scaled to controls: 0 for no effect and ±100 for the full control effect; nearly all actives have a fitted effect of over 55% in size
miR-21 reporter = miR-21 reporter, rising signal; HeLa miR-21 FLuc reporter, luciferase, 48 h; Potency, µM (doses to about 38.3 µM), for inactives: at the highest dose reporter change, positive = more light; 340,000 tested, under 10 active; AID 2288; active = well fitted rising curve with a large enough effect; inconclusive = small, poorly fitted or top-dose-only effect; inactive = no such curve, though single readings can be large or run the other way;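 further: % of control where 0% means no effect; miR-21 action dims this reporter so a rising signal means less miR-21 action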
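Compounds were titrated across several concentrations (up to approximately 40 uM) and incubated 48 hours with HeLa miR-21-FLuc reporter cells (miR-21 target sequence downstream of FLuc, endogenous miR-21). Readout was firefly luciferase luminescence after lytic detection reagent.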
An asterisk follows results filed as active. Unless noted, calls follow the shape of the dose curve; as a rule, active = well fitted curve in the direction sought with a large enough effect; inconclusive = small, poorly fitted or top-dose-only effect, or another doubt; inactive = no such curve, though single readings can be large; an effect the other way counts as inactive or inconclusive.

Results for c1ccc(-c2ccc(-c3csc4ncnc(Sc5nnnn5-c5ccccc5)c34)cc2)cc1 ?
DT40 TDP1 CPT: 7.08µM*; DT40 TDP1 no CPT: 6.31µM*

Results for Clc1ccc(-n2nnnc2Sc2ncnc3sccc23)cc1 ?
DT40 TDP1 CPT: 2.31µM*; DT40 TDP1 no CPT: 1.84µM*; uPA surface inh: 17.0%

Results for Cc1cccc(CSc2nnnn2-c2ccccc2)c1 ?
DT40 TDP1 CPT: inconclusive; DT40 TDP1 no CPT: -20.4%; uPA surface inh: -4.9%; miR-21 reporter: -26.9%

How did CN(C(=O)COC(=O)COc1ccc(N(C)S(=O)(=O)c2ccc(Cl)cc2)cc1)c1ccccc1 do in these assays?
DT40 TDP1 CPT: -7.3%; DT40 TDP1 no CPT: inconclusive; uPA surface inh: 0.5%

What do the screens show for `Clc1ccc(-c2csc3ncnc(Sc4nnnn4-c4ccccc4)c23)cc1`?
DT40 TDP1 CPT: 3.55µM*; DT40 TDP1 no CPT: 2µM*

What do the screens show for `Cn1nnnc1Sc1ncnc2scc(-c3ccc4c(c3)OCO4)c12`?
TDP1 inh: 3.6%; uPA surface inh: -38.8%

How did Cc1ccc(-c2csc3ncnc(Sc4nnnn4-c4ccccc4)c23)cc1 do in these assays?
DT40 TDP1 CPT: 7.08µM*; DT40 TDP1 no CPT: 5.62µM*

What do the screens show for `CC(=O)n1ccnc1`?
DT40 TDP1 CPT: 0.0%; DT40 TDP1 no CPT: -3.5%; uPA surface inh: 7.6%; miR-21 reporter: -2.7%

What do the screens show for `C=CC(=O)NN(C)c1ncc(C(F)(F)F)cc1Cl`?
DT40 TDP1 CPT: inconclusive; TDP1 inh: -13.5%; DT40 TDP1 no CPT: inconclusive; uPA surface inh: 3.55µM*; miR-21 reporter: 11.2%

How did COc1cc(C(C)=O)ccc1OCC(=O)OCC(=O)c1cc(C)n(CC2CCCO2)c1C (configuration not stated) do in these assays?
DT40 TDP1 CPT: 2.4%; TDP1 inh: 2.5%; DT40 TDP1 no CPT: 9.2%; uPA surface inh: 8.6%

Results for Cc1ccc(Cn2c(=O)c3ccccc3n3c(-c4ccccc4)nnc23)cc1 ?
DT40 TDP1 CPT: inconclusive; TDP1 inh: 8.6%; DT40 TDP1 no CPT: inconclusive; miR-21 reporter: -4.6%

How did Cc1ccccc1Cn1c(=O)n(CCc2ccccc2)c(=O)c2ccccc21 do in these assays?
DT40 TDP1 CPT: inconclusive; TDP1 inh: 0.9%; DT40 TDP1 no CPT: inconclusive; miR-21 reporter: -3.8%

Results for Cc1cccc(-c2nnc3n(CCc4ccccc4)c(=O)c4ccccc4n23)c1 ?
DT40 TDP1 CPT: inconclusive; TDP1 inh: 8.6%; DT40 TDP1 no CPT: 25.9µM*; miR-21 reporter: -0.5%

Results for COc1cc(-c2nnc3n(CCc4ccccc4)c(=O)c4ccccc4n23)cc(OC)c1OC ?
DT40 TDP1 CPT: inconclusive; TDP1 inh: 3.4%; DT40 TDP1 no CPT: 16.4µM*; uPA surface inh: -2.5%; miR-21 reporter: -5.1%

What do the screens show for `COc1cc(-n2c(=O)c3ccccc3n(Cc3ccccc3)c2=O)cc(OC)c1OC`?
DT40 TDP1 CPT: inconclusive; TDP1 inh: 0.0%; DT40 TDP1 no CPT: -24.0%; uPA surface inh: -2.6%; miR-21 reporter: -1.6%

What do the screens show for `COc1ccc(OC)c(-c2nnc3n(Cc4ccc(C)cc4)c(=O)c4ccccc4n23)c1`?
DT40 TDP1 CPT: 10.3µM*; TDP1 inh: 5.7%; DT40 TDP1 no CPT: 18.4µM*; miR-21 reporter: -3.6%

Results for O=c1c2ccccc2n2c(-c3ccccc3F)nnc2n1CCc1ccccc1 ?
DT40 TDP1 CPT: inconclusive; TDP1 inh: 8.6%; DT40 TDP1 no CPT: 18.4µM*; miR-21 reporter: -1.7%

Results for CCC1(c2ccc(Cl)cc2)NC(=O)N(CC(=O)NC2(C#N)CCCCC2)C1=O (configuration not stated) ?
DT40 TDP1 CPT: inconclusive; TDP1 inh: 0.8%; DT40 TDP1 no CPT: -8.5%; uPA surface inh: -20.1%

How did CC(C)/C=C/C(=O)N1CCCC(N2CCN(c3ccccc3F)CC2)C1 (configuration not stated) do in these assays?
DT40 TDP1 CPT: inconclusive; DT40 TDP1 no CPT: -25.0%; uPA surface inh: 0.7%; miR-21 reporter: 9.9%

What do the screens show for `O=C(NCc1n[nH]c(=S)n1-c1ccccc1)c1ccc(S(=O)(=O)N2CCCCC2)cc1`?
DT40 TDP1 CPT: -10.1%; TDP1 inh: 4.6%; DT40 TDP1 no CPT: 18.3%; uPA surface inh: 1.4%; miR-21 reporter: -2.7%

How did CC(C)c1ccc(-c2nnc3n(CCc4ccccc4)c(=O)c4ccccc4n23)cc1 do in these assays?
DT40 TDP1 CPT: inconclusive; TDP1 inh: 5.7%; DT40 TDP1 no CPT: 18.4µM*; miR-21 reporter: -2.6%

How did COc1ccc(-c2nnc3n(CCc4ccccc4)c(=O)c4ccccc4n23)c(OC)c1 do in these assays?
DT40 TDP1 CPT: 18.4µM*; TDP1 inh: 2.7%; DT40 TDP1 no CPT: 13µM*; uPA surface inh: -0.8%; miR-21 reporter: -8.2%

What do the screens show for `COc1cc(OC)c(-c2nnc3n(CCc4ccccc4)c(=O)c4ccccc4n23)cc1OC`?
TDP1 inh: 0.6%; miR-21 reporter: -14.9%

How did O=C(Nc1ccc(NS(=O)(=O)c2ccccc2)c(Cl)c1)c1ccccc1 do in these assays?
DT40 TDP1 CPT: -11.8%; DT40 TDP1 no CPT: -19.0%; uPA surface inh: -0.5%

How did O=C(NCc1ccccc1)c1ccc(NC(=O)C2CC2)cc1 do in these assays?
DT40 TDP1 CPT: 0.5%; DT40 TDP1 no CPT: -4.8%; uPA surface inh: -4.1%

Results for CCOCCCNC(=O)c1cc2c(=O)n(C)c3ccccc3c2n1C ?
DT40 TDP1 CPT: inconclusive; TDP1 inh: 0.0%; DT40 TDP1 no CPT: inconclusive; miR-21 reporter: 10.7%

How did Cn1c(=O)c(C(=O)NC2CCCCCC2)c(O)c2ccccc21 do in these assays?
DT40 TDP1 CPT: -5.8%; DT40 TDP1 no CPT: -17.3%; uPA surface inh: 18.4%; miR-21 reporter: -1.5%

What do the screens show for `Cn1c(C(=O)NC2CCCCCC2)cc2c(=O)n(C)c3ccccc3c21`?
DT40 TDP1 CPT: 14.6µM*; TDP1 inh: -2.9%; DT40 TDP1 no CPT: 16.4µM*; uPA surface inh: -6.8%; miR-21 reporter: -9.6%

Results for Cn1c(=O)c(C(=O)NC2CCCCCCC2)c(O)c2ccccc21 ?
DT40 TDP1 CPT: 20.6µM*; TDP1 inh: 0.0%; DT40 TDP1 no CPT: 20.6µM*; uPA surface inh: 1.8%; miR-21 reporter: -4.5%

What do the screens show for `CC1CCCCN1CCNC(=O)c1cc2c(=O)n(C)c3ccccc3c2n1C` (configuration not stated)?
DT40 TDP1 CPT: inconclusive; TDP1 inh: 0.0%; DT40 TDP1 no CPT: inconclusive; uPA surface inh: 0.6%; miR-21 reporter: -18.3%

How did Cn1c(C(=O)NC2CCCCC2)cc2c(=O)n(C)c3ccccc3c21 do in these assays?
DT40 TDP1 CPT: inconclusive; TDP1 inh: 0.0%; DT40 TDP1 no CPT: 16.4µM*; uPA surface inh: -9.7%; miR-21 reporter: -1.7%

Three structures already listed, ordered by number of heavy atoms, descending:
What do the screens show for `COc1cc(OC)c(-c2nnc3n(CCc4ccccc4)c(=O)c4ccccc4n23)cc1OC`?
TDP1 inh: 0.6%; miR-21 reporter: -14.9%

How did COc1ccc(-c2nnc3n(CCc4ccccc4)c(=O)c4ccccc4n23)c(OC)c1 do in these assays?
DT40 TDP1 CPT: 18.4µM*; TDP1 inh: 2.7%; DT40 TDP1 no CPT: 13µM*; uPA surface inh: -0.8%; miR-21 reporter: -8.2%

What do the screens show for `CC1CCCCN1CCNC(=O)c1cc2c(=O)n(C)c3ccccc3c2n1C` (configuration not stated)?
DT40 TDP1 CPT: inconclusive; TDP1 inh: 0.0%; DT40 TDP1 no CPT: inconclusive; uPA surface inh: 0.6%; miR-21 reporter: -18.3%
